Laboratory results taken from US10722599B2, “Lipid assemblies and uses thereof and some pH and electrostatic modulating lipids to be used in said assemblies” (Yissum Research Development Company of the Hebrew …, priority 2015, dated 2020).

Tested on: BALB/c mice
Experiment: In vivo toxicity, single IV escalating dose
Conditions: as formulated siRNA, Ampholip1 up to 10 mg/kg, Ampholip2 up to 5 mg/kg, 24 hours and 7 days
Method: Each group comprised six (6) males and six (6) females BALB/cOlaHsd mice, where half of each group (3 males and 3 females) were assigned to 24 hours or 7 days termination time points, respectively. Animals were subjected to clinical hematology and biochemistry assessment at 24 hours and 7 days post dosing, followed by gross macroscopic examination. The following parameters were evaluated for toxicity: mortality, clinical signs, body weight, weight gain, hematology and biochemistry tests.

Substance: 1,2-di-glutamate-di-steroyl glycerol carbamoyl spermine [Ampholip 1]
- gross pathological findings: no gross pathological findings
